According to PubChem BioAssay AID504490 (NMMLSC, 2011):
Only a part is listed here, and it is no random draw. Calls of active or inactive are those of the source.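 Rule for the calls: active = inhibition above a set limit, near 3 SD of compounds lacking own fluorescence (cut at about 54% in these data); inactive = the rest.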

What follows are compounds tested on beta-arrestin 1 C-terminal peptide binding to AP2 beta2-adaptin appendage (human) (assay: blockers of arrestin peptide association with AP2 adaptin – biochemical, GPCR trafficking, flow cytometry, primary screen (AID 504490;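 note: plate controls were DMSO wells for no effect and 5 µM unlabelled arrestin peptide for full effect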)). Conditions: FITC-arrestin peptide / GST-AP2 beads, at 10 µM, hits give high values, AP2 beta2 appendage carries R879A mutation.
`Cc1ccccc1OP(=O)(Nc1ccccn1)Oc1ccccc1C` was tested, and the inhibition was inactive: 8.52%. In the case of `CC(=O)NC(SC(=S)N(CC(C)C)CC(C)C)C(Cl)(Cl)Cl` (configuration not stated), the inhibition is reported as inactive: -16%. For `COC(=O)c1cc2c(s1)N=C(c1ccccc1)N(C)P2(=O)N1CCOCC1` (configuration not stated), the inhibition was active: 76.9%. In the case of `CCC(=O)N1C2C3N(C(=O)CC)C1C1N(C(=O)CC)C(C(N1C(=O)CC)N3C(=O)CC)N2C(=O)CC`, the inhibition is reported as inactive: 5.1%. In the case of `O=C(OC1CN2CCC1CC2)c1ccccc1` (configuration not stated), the inhibition is reported as inactive: -0.6%. For `O=P1(N(CCCl)CCCl)OCCC2CCCCN21` (configuration not stated), the inhibition was inactive: 2.13%. In the case of `O=C(NC1CCS(=O)(=O)C1)NP(=S)(Oc1ccccc1)Oc1ccccc1` (configuration not stated), the inhibition is reported as inactive: -14.5%. `CCNC(=S)/N=C(\N)N[N+](=O)[O-]` was tested, and the inhibition was inactive: 20.5%. For `Cc1ccc(NP(=O)(Oc2cccc(C)c2)Oc2cccc(C)c2)nc1`, the inhibition was inactive: 13.5%. `c1ccc(-c2nn[nH]n2)c(-c2nn[nH]n2)c1` was tested, and the inhibition was inactive: 15.8%. For `CC(=O)Nc1ccc(Oc2c([N+](=O)[O-])cc([N+](=O)[O-])cc2[N+](=O)[O-])cc1`, the inhibition was inactive: -0.77%. In the case of `CC(=O)Nc1ccc([As](=O)(O)O)c(O)c1`, the inhibition is reported as inactive: 6.6%. For `COC(=O)C1(C)COP(=O)(NCc2ccccc2)OC1` (configuration not stated), the inhibition was inactive: -2.07%. With `CC(=O)c1ccc(N2CC2c2ccncc2)cc1` (configuration not stated) the inhibition was inactive: 12.2%. For `N#C/C(=C\c1ccc(N(CCBr)CCBr)cc1)C(N)=O`, the inhibition was inactive: -0.84%. With `C[C@H]1OP(=O)(Oc2ccccc2)C[C@@H]2O[C@@H]21` (some centres not stated) the inhibition was inactive: -2.97%. For `C[C@@H]1C=CCP(=O)(Oc2ccccc2)O1` (some centres not stated), the inhibition was inactive: -7.11%. With `Cc1ccccc1CN(C)C(=O)COC(=O)C(O)(c1ccccc1)c1ccccc1` the inhibition was inactive: 0.28%. For `CCc1cc(O)c([N+](=O)[O-])c(C)c1[N+](=O)[O-]`, the inhibition was inactive: 2.52%. For `CC(C)(C)C(=O)NC(Sc1ccccc1)C(Cl)(Cl)Cl` (configuration not stated), the inhibition was inactive: -19.6%. With `CCOc1ccc(C2=NCC(CBr)S2)cc1` (configuration not stated) the inhibition was inactive: 10.8%. For `O=P1(Nc2nc3ccc(Cl)cc3s2)COc2ccccc2O1` (configuration not stated), the inhibition was inactive: -6.56%. For `Nc1cc(N)c2nonc2c1[N+](=O)[O-]`, the inhibition was inactive: -11.4%. `CC(C)CC(=O)NC(Sc1ccc(Cl)cc1)C(Cl)(Cl)Cl` (configuration not stated) was tested, and the inhibition was inactive: 25.9%. With `O=C(NC(Sc1ccncn1)C(Cl)(Cl)Cl)c1ccccc1` (configuration not stated) the inhibition was inactive: 14.2%. For `Oc1ccccc1CNc1ccccn1`, the inhibition was inactive: 17%. With `Cc1ccc(OP(=O)(Nc2nccs2)Oc2ccc(C)cc2)cc1` the inhibition was inactive: 14.6%. In the case of `COc1ccccc1OP(=O)(Nc1ccc(C)cn1)Oc1ccccc1OC`, the inhibition is reported as inactive: 32.5%. In the case of `CN1CCCC(OC(=O)C(c2ccccc2)c2ccccc2)C1` (configuration not stated), the inhibition is reported as inactive: 7.38%. In the case of `Clc1ccc(Cl)c(NC2=NCC(CBr)S2)c1` (configuration not stated), the inhibition is reported as inactive: 15.1%. In the case of `NC(=O)c1cc([N+](=O)[O-])cc([N+](=O)[O-])c1N`, the inhibition is reported as inactive: 1.19%. With `Cc1ccc(N/C(=N/P(=O)(N2CCOCC2)N2CCOCC2)N2CCOCC2)cc1` the inhibition was inactive: 7.6%. With `CN(C(=O)Cc1ccc(Cl)c(Cl)c1)[C@H]1CCCC[C@H]1N1CCCC1` the inhibition was inactive: -0.15%. With `CCN(N=Nc1nonc1N)c1nonc1N` the inhibition was inactive: -2.37%. For `Nc1cccc2ccc([As](=O)(O)O)cc12`, the inhibition was inactive: -4.1%. In the case of `CN(C(=O)Cc1ccc(Cl)c(Cl)c1)[C@H]1CCCC[C@@H]1N1CCCC1`, the inhibition is reported as inactive: 0.59%. With `Cc1ccc(NP(=O)(Oc2ccccc2F)Oc2ccccc2F)nc1` the inhibition was inactive: 6.78%. For `Cc1cc(SC(NC(=O)c2ccc(F)cc2)C(Cl)(Cl)Cl)ncn1` (configuration not stated), the inhibition was inactive: 12.7%. In the case of `CCOP(=O)(Nc1ccccc1)OCC`, the inhibition is reported as inactive: -0.24%. For `CCCC1OP(N)(=O)OCC1CC` (configuration not stated), the inhibition was inactive: 0.27%. For `CC(=O)Nc1ccc([As](=O)(O)O)cc1`, the inhibition was inactive: 40.8%. For `O=C(O)c1ccccc1[As](=O)(O)O`, the inhibition was inactive: 1.42%. For `O=P(Nc1nc2ccc(Cl)cc2s1)(c1ccccc1)c1ccccc1`, the inhibition was inactive: -6.29%. In the case of `COC(=O)C1(C)COP(=O)(Nc2ccccc2)OC1` (configuration not stated), the inhibition is reported as inactive: -0.62%. With `O=[N+]([O-])c1cccc(NC2=NCC(CBr)S2)c1` (configuration not stated) the inhibition was inactive: 30.4%. `O=C(O)CNc1ccc([As](=O)(O)O)cc1` was tested, and the inhibition was inactive: -15.4%. With `CC(C)(C)C(=O)NC(Sc1ccncn1)C(Cl)(Cl)Cl` (configuration not stated) the inhibition was inactive: 9.44%. With `O=[N+]([O-])c1ncn(CCn2ncnc2[N+](=O)[O-])n1` the inhibition was inactive: 51.7%. For `O=C(Nc1cc([As](=O)(O)O)ccc1O)c1ccccc1`, the inhibition was inactive: 8.73%. With `O=P1(N(CCCl)CCCl)OCCCS1` (configuration not stated) the inhibition was inactive: 1.37%. `CN(C)C(=O)OCCc1n(C)cc[n+]1C` was tested, and the inhibition was inactive: -1.42%. For `CC(C)=N/N=C(\N)N[N+](=O)[O-]`, the inhibition was inactive: -2.82%. In the case of `CC1CCN(C(=O)Oc2c(Cl)cc(Cl)c3cccnc23)CC1`, the inhibition is reported as inactive: 13%. In the case of `C[N+]1=C2C=CC=CC=C2SC12C([N+](=O)[O-])=CC([N+](=O)[O-])=C[C-]2[N+](=O)[O-]` (configuration not stated), the inhibition is reported as inactive: -7.98%. For `Nc1ccc([As](=O)(O)c2ccc(N)cc2)cc1`, the inhibition was inactive: 10.3%. For `CCN(/C(=N/P(=O)(N1CCOCC1)N1CCOCC1)N1CCOCC1)c1ccc(OC)cc1`, the inhibition was inactive: 4.71%. In the case of `CC(=O)N1C2C3N(C(C)=O)C1C1N(C(C)=O)C(C(N1C(C)=O)N3C(C)=O)N2C(C)=O`, the inhibition is reported as inactive: 1.47%. For `O=[N+]([O-])c1cccc2n[nH]nc12`, the inhibition was inactive: 5.56%. In the case of `O=[N+]([O-])c1cc([N+](=O)[O-])c(CCNc2ccccc2)c([N+](=O)[O-])c1`, the inhibition is reported as inactive: 42%. For `CCc1nc2c(n1)c1c(non1O)c1c2no[n+]1[O-]`, the inhibition was inactive: 6.74%. With `Cc1ccc(NP(=O)(Oc2ccccc2)Oc2ccccc2)nc1` the inhibition was inactive: -9.44%. In the case of `COc1ccc(C2=NCC(CBr)S2)cc1` (configuration not stated), the inhibition is reported as inactive: -21.1%.
